Laboratory results as given in patent publication US6770799B2, “Expression of recombinant human acetylcholinesterase in transgenic plants” (priority 2000, dated 2004).

Amino acid sequences for entries named in this document (tags omitted). Residues count along the entry.
UniProt P22303, 32-574: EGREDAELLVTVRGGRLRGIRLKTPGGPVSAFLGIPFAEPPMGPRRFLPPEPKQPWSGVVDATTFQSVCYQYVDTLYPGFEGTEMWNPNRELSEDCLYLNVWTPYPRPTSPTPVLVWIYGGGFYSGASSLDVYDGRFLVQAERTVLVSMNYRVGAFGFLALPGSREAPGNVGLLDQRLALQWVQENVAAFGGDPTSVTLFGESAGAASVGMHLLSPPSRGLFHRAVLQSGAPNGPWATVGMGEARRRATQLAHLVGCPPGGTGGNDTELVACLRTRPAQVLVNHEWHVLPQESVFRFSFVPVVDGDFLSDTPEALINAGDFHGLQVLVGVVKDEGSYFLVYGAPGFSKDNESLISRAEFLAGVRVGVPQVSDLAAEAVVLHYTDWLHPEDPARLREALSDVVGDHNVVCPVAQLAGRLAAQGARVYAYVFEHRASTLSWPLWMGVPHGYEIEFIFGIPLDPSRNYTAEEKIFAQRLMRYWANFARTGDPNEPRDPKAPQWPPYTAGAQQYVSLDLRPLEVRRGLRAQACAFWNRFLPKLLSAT
UniProt P22303, 32-617 isoform P22303-2 limits assumed: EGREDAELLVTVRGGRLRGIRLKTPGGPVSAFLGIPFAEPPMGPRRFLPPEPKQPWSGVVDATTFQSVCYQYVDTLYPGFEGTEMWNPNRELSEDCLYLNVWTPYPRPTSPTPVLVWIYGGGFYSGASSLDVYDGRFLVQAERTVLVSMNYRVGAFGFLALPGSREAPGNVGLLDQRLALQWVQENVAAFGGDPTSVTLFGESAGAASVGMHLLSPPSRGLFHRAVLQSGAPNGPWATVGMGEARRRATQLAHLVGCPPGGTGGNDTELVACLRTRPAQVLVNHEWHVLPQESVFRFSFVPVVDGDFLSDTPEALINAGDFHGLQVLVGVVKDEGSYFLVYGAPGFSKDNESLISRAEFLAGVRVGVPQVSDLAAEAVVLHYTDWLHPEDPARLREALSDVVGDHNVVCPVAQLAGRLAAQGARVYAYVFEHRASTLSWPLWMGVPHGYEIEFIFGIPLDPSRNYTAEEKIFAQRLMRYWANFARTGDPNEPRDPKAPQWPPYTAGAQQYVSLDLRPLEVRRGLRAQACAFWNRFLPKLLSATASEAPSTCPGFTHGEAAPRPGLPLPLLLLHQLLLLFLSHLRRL
UniProt P22303, 32-614: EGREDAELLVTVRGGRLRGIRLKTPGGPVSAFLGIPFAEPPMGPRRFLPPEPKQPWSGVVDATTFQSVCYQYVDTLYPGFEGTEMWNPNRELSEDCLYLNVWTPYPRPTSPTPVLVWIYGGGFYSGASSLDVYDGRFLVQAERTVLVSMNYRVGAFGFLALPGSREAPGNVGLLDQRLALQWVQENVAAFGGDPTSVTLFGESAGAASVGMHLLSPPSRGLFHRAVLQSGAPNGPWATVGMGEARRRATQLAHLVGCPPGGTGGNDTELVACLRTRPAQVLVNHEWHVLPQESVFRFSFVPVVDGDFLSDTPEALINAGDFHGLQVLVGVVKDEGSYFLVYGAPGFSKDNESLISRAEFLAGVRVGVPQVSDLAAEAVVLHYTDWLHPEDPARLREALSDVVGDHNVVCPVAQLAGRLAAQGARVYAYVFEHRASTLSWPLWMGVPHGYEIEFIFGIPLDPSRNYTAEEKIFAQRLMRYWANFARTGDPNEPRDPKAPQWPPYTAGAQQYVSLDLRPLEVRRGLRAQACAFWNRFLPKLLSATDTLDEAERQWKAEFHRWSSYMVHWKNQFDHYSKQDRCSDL

Legend:
[1] = target: T1, plant derived recombinant AChE (rAChE) (Homo sapiens, UniProt P22303); assay: Inhibition of plant-derived recombinant AChE (Ellman assay); assay type: biochemical
T1 construct: We expressed the engineered AChE-E4 form, encoded by exons 2-4 of the human gene; made in house; host or cells: transgenic tomato (Lycopersicum esculentum cv. Micro-Tom), cleared leaf extracts

[2] = target: human AChE derived from erythrocytes (Homo sapiens, UniProt P22303); conditions: erythrocyte form; comparison value; cited from earlier work
[3] = target: recombinant human synaptic enzyme transiently expressed in mammalian cell cultures (Homo sapiens, UniProt P22303); conditions: comparison value; cited from earlier work

C=CC[N+](C)(C)c1ccc(CCC(=O)CCc2ccc([N+](C)(C)CC=C)cc2)cc1.[Br-].[Br-] [BW284c51, 1,5-bis(allyldimethylammiumphenyl)pentan-3 one dibromide]
inhibition of plant derived rAChE ([1]; 1 mM acetylthiocholine): can inhibit
Ki ([1]; 1, 0.33 and 0.25 mM acetylthiocholine, inhibitor 10^-4 to 10^-10 M): 0.016 µM
Ki [2]: 0.005 µM
Ki [3]: 0.01 µM
